{"sequences": {"note": "Protein sequences, listed by entry. Tags and fused reporters are not part of them.", "UniProt P21728, whole entry": "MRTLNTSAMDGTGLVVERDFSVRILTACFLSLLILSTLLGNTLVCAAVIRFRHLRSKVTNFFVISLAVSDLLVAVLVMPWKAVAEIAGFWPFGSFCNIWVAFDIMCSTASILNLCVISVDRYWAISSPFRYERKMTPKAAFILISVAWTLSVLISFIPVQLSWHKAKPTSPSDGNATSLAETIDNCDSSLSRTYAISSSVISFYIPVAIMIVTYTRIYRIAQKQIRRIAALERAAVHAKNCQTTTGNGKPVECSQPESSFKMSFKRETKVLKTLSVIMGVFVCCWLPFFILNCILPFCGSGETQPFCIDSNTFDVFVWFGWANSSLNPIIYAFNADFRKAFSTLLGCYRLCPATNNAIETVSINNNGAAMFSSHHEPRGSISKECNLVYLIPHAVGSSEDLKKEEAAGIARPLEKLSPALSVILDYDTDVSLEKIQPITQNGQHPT"}, "source": "PubChem BioAssay AID504660", "about": "(National Center for Advancing Translational Sciences (NCATS), 2011)", "note": "The entries are a selection whose mix differs from that of the whole data set. Some structures show a salt or complex split into parts, the way the source records it. The source made the active and inactive calls. No stated cut-off is given here; in the data, active means activation above about 30%; inactive means the rest."}
{"target": "D(1A) dopamine receptor (Homo sapiens) (UniProt P21728)", "assay": "Allosteric Agonists of the Human D1 Dopamine Receptor: qHTS; further: 0% is about no effect", "details": "HEK293 T-REx D1 cells, calcium flux, agonist mode; at 2 µM; hits give high values", "description": "NIH Chemical Genomics Center [NCGC] NIH Molecular Libraries Probe Centers Network [MLPCN] MLPCN Grant: NS064831-01 Assay Submitter (PI): David Sibley Dopamine receptors (DARs) are involved in the etiology and/or therapy of a number of neuropsychiatric and endocrine disorders. For instance, all receptor-based antiparkinsonian drugs work via stimulating the D1 DAR subtype whereas all FDA-approved antipsychotic agents are antagonists of this receptor. […] There are three different types of allosteric modulators that we are seeking, two of which will stimulate or augment receptor signaling, allosteric agonists and potentiators, while the third, allosteric antagonists, will attenuate receptor signaling. The present primary screening assay measures compound agonism by tracking calcium flux in a […], inducible Hek293 Trex D1 cell line.\nFreshly passaged cells are plated in 1536 well black, clear bottom plates at a density of 4000 cells/well in 3 ul of complete media containing 1x tetracycline inducer. After an overnight incubation at […] in 5% CO2, cells are loaded with 2 ul of the no wash Calcium Assay Kit (ABD Bioquest) and incubated at room temperature for 30 to 90 minutes. Agonist read: A 10 cycle (1 second/cycle) baseline measurement is taken and then the FDSS online 1536 pintool delivers 23 nl of compound library (as well as dopamine controls) to the plate. The plate is measured for kinetically at 1 cycle/sec for 180 seconds and is considered to be the agonist portion of the assay (eg, compounds which activate a positive calcium response during this portion are flagged as potential agonists). Following the 180 second read, 1 ul of either an EC20 (positive modulation assay) or EC80 (negative modulation assay) is delivered by an onboard pipette head. Measurements are taken kinetically for an additional 180 seconds."}
{"smiles": "COc1ccc2c(c1O)-c1c(O)c(OC)cc3c1[C@H](C2)[N+](C)(C)CC3.O=[N+]([O-])c1cc([N+](=O)[O-])c([O-])c([N+](=O)[O-])c1[O-]", "activation": "inactive: 3.48%"}
{"smiles": "COc1cc(OC)c(C(=O)NCC2(N(C)C)CCCCC2)cc1OC", "activation": "inactive: 0.379%"}
{"smiles": "CC(C)c1ccc(NC2CCN(C(=O)OC(C)(C)C)CC2)cc1", "activation": "inactive: 8.34%"}
{"smiles": "COc1ccc(CN(CCCl)CCCl)cc1Cl", "activation": "inactive: 2.02%"}
{"smiles": "CN(C)c1cccc(C(=O)NCC2(N3CCCCC3)CCCCC2)c1", "activation": "inactive: 0.929%"}
{"smiles": "O=[N+]([O-])c1cc([N+](=O)[O-])c(OC2CCCCC2O)c([N+](=O)[O-])c1", "note": "(stereo not given)", "activation": "inactive: 1.35%"}
{"smiles": "O=C(NCC1(N2CCOCC2)CCCCC1)c1cc(=O)[nH]c2ccccc12", "activation": "inactive: 0.715%"}
{"smiles": "COc1cc(C(=O)NCC2(N3CCCCC3)CCCCC2)ccc1OC(F)F", "activation": "inactive: 0.74%"}
{"smiles": "COc1ccc(NC2CCN(C(=O)OC(C)(C)C)CC2)cc1", "activation": "inactive: 5.71%"}
{"smiles": "CC(C)c1ccc(C(=O)NCC2(N3CCOCC3)CCCCC2)cc1", "activation": "inactive: 5.46%"}
{"smiles": "CN1CCN(CCOC(=O)C(O)(c2ccccc2)c2ccccc2)CC1", "activation": "inactive: 2.35%"}
{"smiles": "O=[N+]([O-])c1cc([N+](=O)[O-])c(NCC2CCS(=O)(=O)C2)c([N+](=O)[O-])c1", "note": "(stereo not given)", "activation": "inactive: 2.74%"}
{"smiles": "O=C(NCC1(N2CCCCC2)CCCCC1)c1cccc(C(F)(F)F)c1", "activation": "inactive: 3%"}
{"smiles": "CCCOc1cccc(C(=O)NCC2(N3CCOCC3)CCCCC2)c1", "activation": "inactive: -1.66%"}
{"smiles": "CCN1CCC(Nc2ccc(Cl)cc2)CC1", "activation": "inactive: 5.11%"}
{"smiles": "N#CC1(Nc2ccccc2)CCN(CCc2ccccc2)CC1", "activation": "inactive: 3.9%"}
{"smiles": "CSc1ccc(C(=O)NCC2(N3CCOCC3)CCCCC2)cc1", "activation": "inactive: 1.35%"}
{"smiles": "O=C(NCC1(N2CCCCC2)CCCCC1)c1cccc([N+](=O)[O-])c1", "activation": "inactive: 5.17%"}
{"smiles": "CCOc1ccc(C(=O)NCC2(N3CCOCC3)CCCCC2)cc1", "activation": "inactive: 0.991%"}
{"smiles": "O=C(NCC1(N2CCCCC2)CCCCC1)c1ccc(OC(F)F)cc1", "activation": "inactive: 2.6%"}
